Among the data in ChEMBL document CHEMBL5321226, “Structure-directed identification of pyridine-2-methylamine derivatives as MmpL3 inhibitors for use as antitubercular agents” (Eur J Med Chem, 2023) are microsomal CLint values, retold here.

This data set is described as follows: Metabolic stability in human liver microsomes assessed as intrinsic clearance and mesured upto 60 mins in presence of NADPH. It is filed as ADME, Microsome. The note with it: read-out: CLH.

As for `O=C(O)Cc1ccccc1Nc1c(Cl)cccc1Cl` [DICLOFENAC], the microsomal CLint was 180 µL/min/mg.
